# Results taken from publication PMC12883167 (Bioorganic & medicinal chemistry letters, 2019).
# Peptide text beside a SMILES is read from it. * marks the point of attachment. Cbz = O=C(OCc1ccccc1)*; CH2F = FC*
# Tested on: RelB cleavage (MALT1 protease activity) in OCI-Ly3 cells
# Experiment: Inhibition of RelB cleavage in OCI-Ly3 cells by Western blot
# Format: cell-based
# Conditions: at 1.25 μM
structure (smiles),measurement,value
"CC(C)C[C@H](NC(=O)OCc1ccccc1)C(=O)N[C@H](C(=O)N1CCC[C@H]1C(=O)N[C@@H](CCCNC(=N)N)C(=O)CF)C(C)C [Compound 1, Z-LVPR-fmk] (Cbz-LVPR-CH2F)",inhibition of RelB cleavage,complete inhibition
